Measurements as given in PubChem BioAssay AID540329 (Sanford-Burnham Center for Chemical Genomics, 2011).
The entries are a selection whose mix differs from that of the whole data set. The source made the active and inactive calls.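 How the source made its calls: active means substances whose mean melting-temperature shift, as a percentage of the reference inhibitor's shift, reaches about 5.3% (limit read from the data); inactive means the rest.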

The chains behind the UniProt entries cited, without tags or fusion partners. Where a name states a change or a piece, a line headed by the entry shows the natural chain unless it says otherwise.
UniProt Q9GZU7: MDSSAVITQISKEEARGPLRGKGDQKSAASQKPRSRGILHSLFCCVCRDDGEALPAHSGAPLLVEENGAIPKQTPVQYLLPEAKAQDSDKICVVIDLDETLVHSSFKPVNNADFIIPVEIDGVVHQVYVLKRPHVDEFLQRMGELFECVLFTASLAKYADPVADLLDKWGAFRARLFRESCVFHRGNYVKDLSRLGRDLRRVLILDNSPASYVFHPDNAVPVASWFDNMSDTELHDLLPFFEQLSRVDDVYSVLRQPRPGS

Molecular target: Carboxy-terminal domain RNA polymerase II polypeptide A small phosphatase 1 (Homo sapiens) (UniProt Q9GZU7)
Experiment: SCP1 melting temperature change from compounds – biophysical, differential scanning fluorimetry, orthogonal assay for Scp-1 inhibitor project, confirmation (AID 540329);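 further: 0% = Tm of DMSO wells and 100% = Tm with sodium orthovanadate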
Conditions: Recombinant SCP1, Sypro Orange thermal shift Tm; at 40 µM; active compounds read high
Outline: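 Test system – Scp-1 catalytic domain protein (residues 76-261) · Quantity – 10 µM Scp-1 stock · Buffer or medium – Tris acetate pH 5.5, MgCl2, Tween-20 · Dosing – single compound dose, delivered from a 10 mM stock · Schedule – 20-95 °C thermal ramp · Measured by – Sypro Orange fluorescence thermal melt · Read-out basis – melting temperature shift relative to vanadate · Control set – vanadate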

Structure (SMILES) | thermal shift relative to vanadate control
Nc1cccc2ccc([As](=O)(O)O)cc12 | inactive: 3.81%
